The target of the assay is Aplysia californica acetylcholine binding protein (Ac-AChBP) (Aplysia californica). The assay can be described thus: crystal structure.

The text below walks through data of paper PMC5563285 (Protein & Cell, 2017).

The stoichiometry N is the number of molecules, sites or subunits per partner or assembly. For “Aplysia californica acetylcholine binding protein (Ac-AChBP) (natural protein)”, the stoichiometry N came out at 5.
